Laboratory results: patent US8618290B2 (dated 2013)

Biological target: human HSP90a (recombinant N-terminal nucleotide binding domain) (Homo sapiens (Human), UniProt P07900)
Test: Competition fluorescence polarization binding assay with TSD-FP probe
Settings: read-out: Binding Affinity IC50; method of Example A-1; incubation time not stated

SMILES	IC50 [nM]
COc1cccc(-c2cc(F)ccc2[C@H]2Cc3nc(N)nc(C)c3/C(=N/OCCC[C@H](O)CO)N2)n1 [Compound 75, (R,Z)-2-amino-7-(4-fluoro-2-(6-methoxypyridin-2-yl)phenyl)-4-methyl-7,8-dihydropyridol[4,3-d]pyrimidin-5(6H)-one O—(S)-4,5-dihydroxypentyl oxime]	10
COc1cccc(-c2cc(F)ccc2[C@H]2Cc3nc(N)nc(C)c3/C(=N/OC[C@H]3COCCO3)N2)n1 [Compound 40, (R,Z)-2-Amino-7-(4-fluoro-2-(6-methoxypyridin-2-yl)phenyl)-4-methyl-7,8-dihydropyrido[4,3-d]pyrimidin-5(6H)-one O—((R)-1,4-dioxan-2-yl)methyl oxime]	10
